From ChEMBL document CHEMBL1122866, “3-Phenyl-1-indanamines. Potential antidepressant activity and potent inhibition of dopamine, norepinephrine, and serotonin uptake” (J Med Chem, 1985)

Sequences of proteins named here, by UniProt entry; tags and fusion partners are left off.
UniProt P23977, whole entry: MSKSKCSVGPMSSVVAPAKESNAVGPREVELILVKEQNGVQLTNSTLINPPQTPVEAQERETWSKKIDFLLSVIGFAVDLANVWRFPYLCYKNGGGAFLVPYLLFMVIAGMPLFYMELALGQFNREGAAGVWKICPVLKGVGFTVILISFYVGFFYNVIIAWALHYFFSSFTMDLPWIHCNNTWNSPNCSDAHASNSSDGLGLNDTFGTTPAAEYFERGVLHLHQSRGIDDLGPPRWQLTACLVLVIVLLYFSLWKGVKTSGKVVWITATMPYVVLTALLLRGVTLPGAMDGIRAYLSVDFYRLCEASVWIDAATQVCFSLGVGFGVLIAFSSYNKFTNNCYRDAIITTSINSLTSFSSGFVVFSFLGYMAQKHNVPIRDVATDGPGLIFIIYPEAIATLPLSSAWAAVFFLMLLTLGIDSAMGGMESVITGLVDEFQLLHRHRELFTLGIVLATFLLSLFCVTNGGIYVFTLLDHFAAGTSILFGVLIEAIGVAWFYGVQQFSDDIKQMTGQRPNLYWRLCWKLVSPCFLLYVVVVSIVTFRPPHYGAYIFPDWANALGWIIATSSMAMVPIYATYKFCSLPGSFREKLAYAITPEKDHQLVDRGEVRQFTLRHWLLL

What follows are compounds tested against Sodium-dependent dopamine transporter (Rattus norvegicus, UniProt P23977) (assay: Inhibition of dopamine uptake in rat synaptosomal fraction).
Type: functional

First: CNC1CC(c2ccc(Cl)c(Cl)c2)c2ccccc21 (single isomer, unassigned; (+)) [INDATRALINE]
Second: CNC1CC(c2ccc(Cl)c(Cl)c2)c2ccccc21.Cl (stereo in doubt; 45)
The IC50 of the first is 5.8-fold lower: 0.17 nM for the first, 0.99 nM for the second. The first is the more potent here.

`CNC1CC(c2ccc(Cl)c(Cl)c2)c2ccccc21` (single isomer, unassigned; (-)) [INDATRALINE] was tested, and the IC50 was 8.6 nM.
With `CNC1CC(c2ccc(Cl)c(Cl)c2)c2ccccc21` (stereo in doubt; 72) the IC50 was 20 nM.
